Several values for one entry are separate records, joined by “and”; a condition that tells them apart may be missing. Equal entries are not always repeated. This is a selection; strong and weak results do not stand in their true shares. Inconclusive results are not listed. Activity calls are given as the source filed them. Calls come from the whole dose curve; as a rule, active = well fitted cell-killing curve with a large enough effect in the repeat runs; inconclusive = weak or mixed curves; inactive = flat fitted curve, though single readings scatter.
% is set by controls: 0 for no effect and ±100 for the full control effect.

One test can be described thus: qHTS assay to identify small molecule antagonists of the estrogen receptor beta (ER-beta) signaling pathway - cell viability counter screen (AID 1259382). Note: nearly all actives have a fitted effect of over 55% in size. To be noted: ER-beta-UAS-bla HEK293T viability, CellTiter-Glo luminescence, 16 h; at 42.5 µM (top of the series). An excerpt:
U.S. Tox21 Program National Center for Advancing Translational Sciences [NCATS] NIH Chemical Genomics Center [NCGC] U.S. Environmental Protection Agency [EPA] National Institutes of Environmental Health Sciences [NIEHS] National Toxicology Program [NTP] U.S. Food and Drug Administration [FDA] Tox21 Assay Overview: Estrogen receptor (ER), a nuclear hormone receptor, plays an important role in development, metabolic homeostasis and reproduction. Two subtypes of ER, ER-alpha and ER-beta, have similar expression patterns with some uniqueness in both types. Endocrine disrupting chemicals (EDCs) and their interactions with steroid hormone receptors like ER causes disruption of normal endocrine function. To identify the compounds that inhibit ER signaling, an ER-beta-UAS-bla GripTite cell line (Life Technologies, Madison, WI, USA) containing a beta-lactamase reporter gene under the control of an UAS response element was used to screen Tox21 10K compound library. The cytotoxicity of the Tox21 compound library against the ER-beta-bla cell line was tested in parallel by measuring the cell viability using CellTiter-Glo assay in the same wells.
Tox21 Assay Protocol Summary: ER-beta-UAS-bla HEK293T cells were dispensed at 2,000 cells/4 uL of assay medium containing 2% charcoal stripped FBS per well into black wall/clear-bottom 1536-well plates using a Multidrop Combi (ThermoFisher Scientific, Waltham, MA) dispenser. After the assay plates were incubated at a 37C and 5% CO2 for 6 hr, 23 nL of compounds dissolved in DMSO, positive controls or DMSO only was transferred to the assay plate by a Pintool station (Kalypsys, San Diego, CA), followed by addition of 1 uL (1nM as final concentration) of 17-beta-estradiol (E2) in assay medium using a Flying Reagent Dispenser (FRD, Aurora Discovery, San Diego, CA). The plates were incubated at 37C and 5% CO2 for 16 hr. Then 1 uL of LiveBLAzer B/G FRET substrate was added using a Flying Reagent Dispenser, the plates were incubated at room temperature for 2 hours, and fluorescence intensity was measured by an Envision plate reader (PerkinElmer, Shelton, CT). For cell viability readout that measures cytotoxicity, 4 uL/well of CellTiter-Glo reagent was added into the assay plates using a FRD. After 30 min incubation at room temperature, the luminescence intensity in the plates was measured using a ViewLux (PerkinElmer) plate reader.
In the case of `NC(=O)Nc1ccc([As](=O)(O)O)cc1`, the activity change, negative = cytotoxicity was inactive: 1.67%.

Staying with this test, now noted: ER-beta-UAS-bla HEK293T viability, CellTiter-Glo luminescence, 16 h; at 92.4 µM (top of the series).
In the case of `NC(=O)Nc1ccc([As](=O)(O)O)cc1`, the activity change, negative = cytotoxicity is inactive: -1.03%.

The same test, now with this note: ER-beta-UAS-bla HEK293T viability, CellTiter-Glo luminescence, 16 h; at 92.4 µM (top of the series) unless noted.
For `CCNC(C)Cc1ccc2c(c1)OCO2` (stereo not given), the activity change, negative = cytotoxicity was inactive: -2.11%.

Consider `CCCCOP(OCCCC)OCCCC`, for which the activity change, negative = cytotoxicity was inactive: 2.19%.

Consider `CN(N=O)C(=N)N[N+](=O)[O-]`, for which the activity change, negative = cytotoxicity was inactive: -1.99%.

As to `O=[p+]1oc2ccccc2c2ccccc21` (stereo not given), the activity change, negative = cytotoxicity was inactive: 4.73%.

For the compound `CC(C)CCCCCCCOP(OCCCCCCCC(C)C)Oc1ccccc1`, the activity change, negative = cytotoxicity is inactive: -2.06%.

Consider `O=P(Cl)(Cl)c1ccccc1`, for which the activity change, negative = cytotoxicity was inactive: 3.01%.

For the compound `CCOC(=O)Cl`, the activity change, negative = cytotoxicity was inactive: -0.61%.

In the case of `CN(C(=O)Cc1ccc(Cl)c(Cl)c1)[C@H]1CC[C@@]2(CCCO2)C[C@@H]1N1CCCC1`, the activity change, negative = cytotoxicity is inactive: -1.68% [at 42.5 µM].

For `O=C(Cl)OCCOC(=O)Cl`, the activity change, negative = cytotoxicity was inactive: 0%.

As for `CCOP(=S)(CC)Sc1ccccc1` (stereo not given), the activity change, negative = cytotoxicity was inactive: 1.51%.

As to `CCCCC(CC)CO[P+](=O)OCC(CC)CCCC` (stereo not given), the activity change, negative = cytotoxicity was inactive: 3.78%.

In the case of `CN(C(=O)Cc1ccccc1)[C@H]1CC[C@@]2(CCCO2)C[C@@H]1N1CCCC1`, the activity change, negative = cytotoxicity was inactive: 0.53% [at 42.5 µM].

For the compound `O=[P+](Oc1ccccc1)Oc1ccccc1`, the activity change, negative = cytotoxicity is inactive: 6.3%.

As for `ClP(Cl)c1ccccc1`, the activity change, negative = cytotoxicity is inactive: -0.415%.

Regarding `O=P(Cl)(Oc1ccccc1)Oc1ccccc1`, the activity change, negative = cytotoxicity is inactive: 0.998%.

`CCCCO[P+](=O)OCCCC`: the activity change, negative = cytotoxicity was inactive: 5.05% and inactive: 3.65%.

`O=[N+]([O-])c1ccc([N+](=O)[O-])cc1`: the activity change, negative = cytotoxicity is inactive: -20.3%.

Turning to `O=C(Cl)Oc1ccccc1`, the activity change, negative = cytotoxicity is inactive: 1.14%.

In the case of `O=[N+]([O-])c1ccc(S(=O)(=O)O)c([N+](=O)[O-])c1`, the activity change, negative = cytotoxicity is inactive: -5.98%.

With `COP(=S)(Cl)OC`, the activity change, negative = cytotoxicity is inactive: 3.86%.

Turning to `CCC(C)(OOC(C)(C)C)OOC(C)(C)C`, the activity change, negative = cytotoxicity was inactive: 8.38% [at 19 µM].

`COC(=O)Cl`: the activity change, negative = cytotoxicity was inactive: 3.73%.

`CN(C(=O)Cc1cccc2occc12)[C@H]1CC[C@@]2(CCCO2)C[C@@H]1N1CCCC1`: the activity change, negative = cytotoxicity is inactive: -6.2%.
